Experimental data from PubChem BioAssay (Tox21).
Where “and” joins values, the source holds several entries; their conditions need not be identical. Equal values may be shown once. The entries are a selection whose mix differs from that of the whole data set. Records with an inconclusive call do not appear. Calls of active or inactive are those of the source. The call rests on the fitted dose curve; in most records, active means well fitted curve in the direction sought with a large enough effect in the repeat runs; inconclusive means weak or mixed curves; inactive means no such curve, though single readings can be large; an effect the other way counts as inactive or inconclusive.

Assays:
[1] = qHTS RealTime-Glo MT Cell Viability Assay in HepG2 cells - 40 hour (AID 1224870); settings: RealTime-Glo luminescence; at 76.8 µM (top of the series) unless noted; further: nearly all actives have a fitted effect of over 50% in size
How it was run: (§1)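 HepG2 cells mixed with RealTime-Glo MT reagents (NanoLuc plus cell-permeant prosubstrate) were seeded at 600 cells/well, incubated 5 h at 37 C/5% CO2, then pinned with compounds in DMSO; nonlytic luminescence tracked viability during 40 h treatment.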

[2] = A CellTox Green Cytotoxicity Assay to monitor cytotoxicity in HEK293 cells - 40 hour (AID 1224871); settings: CellTox Green fluorescence; at 76.8 µM (top of the series) unless noted; further: nearly all actives have a fitted effect of over 45% in size
How it was run: (§2)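 Tox21 screen in HEK293: membrane-impermeant cyanine dye fluoresces on binding dead-cell DNA; compound pinned 5 h post-seeding, plates held at 37 C, signal read repeatedly through 40 h.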

[3] = qHTS RealTime-Glo MT Cell Viability Assay in HEK293 cells - 16 hour (AID 1224872); settings: RealTime-Glo luminescence; at 76.8 µM (top of the series) unless noted; further: top concentration of the series differs between compounds; nearly all actives have a fitted effect of over 50% in size
How it was run: (§3)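 Homogeneous bioluminescent viability format in HEK293 cells (600 cells/well). Following 5 h at 37 C/5% CO2, 23 nL compound was pintooled; the signal was measured repeatedly during 40 h incubation.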

[4] = qHTS RealTime-Glo MT Cell Viability Assay in HepG2 cells - 8 hour (AID 1224873); settings: RealTime-Glo luminescence; at 76.8 µM (top of the series) unless noted; further: nearly all actives have a fitted effect of over 55% in size
How it was run: as §1

[5] = qHTS RealTime-Glo MT Cell Viability Assay in HEK293 cells - 40 hour (AID 1224874); settings: RealTime-Glo luminescence; max response: active compounds read low; further: nearly all actives have a fitted effect of over 50% in size
How it was run: (§4)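 HEK293 + NanoLuc + prosubstrate, 600 cells/well; 5 h, 37 C/5% CO2; compound 23 nL in DMSO by pintool; 37 C; luminescence read at 0, 8, 16, 24, 32 and 40 h time points.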

[6] = A CellTox Green Cytotoxicity Assay to monitor cytotoxicity in HEK293 cells - 24 hour (AID 1224875); settings: CellTox Green fluorescence, active compounds read high; at 76.8 µM (top of the series) unless noted; further: nearly all actives have a fitted effect of over 45% in size
How it was run: as §2

[7] = A CellTox Green Cytotoxicity Assay to monitor cytotoxicity in HepG2 cells - 16 hour (AID 1224876); settings: CellTox Green fluorescence; at 76.8 µM (top of the series); further: nearly all actives have a fitted effect of over 45% in size
How it was run: (§5)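 Measurements at 0, 8, 16, 24, 32 and 40 h of treatment captured CellTox Green fluorescence in HepG2 cells that had been co-plated with reagent and preincubated 5 h at 37 C/5% CO2.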

[8] = qHTS RealTime-Glo MT Cell Viability Assay in HepG2 cells - 32 hour (AID 1224877); settings: RealTime-Glo luminescence; at 76.8 µM (top of the series) unless noted; further: nearly all actives have a fitted effect of over 55% in size
How it was run: (§6)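 Cell number in HepG2 cultures estimated from NanoLuc luminescence generated by metabolic reduction of a prosubstrate by living cells. The homogeneous, nonlytic format allowed repeated reads at 0, 8, 16, 24, 32 and 40 h of compound exposure.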

[9] = A CellTox Green Cytotoxicity Assay to monitor cytotoxicity in HepG2 cells - 24 hour (AID 1224878); settings: CellTox Green fluorescence; at 76.8 µM (top of the series); further: nearly all actives have a fitted effect of over 45% in size
How it was run: as §5

[10] = A CellTox Green Cytotoxicity Assay to monitor cytotoxicity in HepG2 cells - 40 hour (AID 1224879); settings: CellTox Green fluorescence; at 76.8 µM (top of the series) unless noted; further: nearly all actives have a fitted effect of over 40% in size
How it was run: as §5

[11] = qHTS RealTime-Glo MT Cell Viability Assay in HEK293 cells - 0 hour (AID 1224880); settings: RealTime-Glo luminescence; at 76.8 µM (top of the series) unless noted
How it was run: as §4

[12] = A CellTox Green Cytotoxicity Assay to monitor cytotoxicity in HEK293 cells - 32 hour (AID 1224881); settings: CellTox Green fluorescence; at 76.8 µM (top of the series) unless noted; further: nearly all actives have a fitted effect of over 40% in size
How it was run: as §2

[13] = A CellTox Green Cytotoxicity Assay to monitor cytotoxicity in HepG2 cells - 0 hour (AID 1224882); settings: CellTox Green fluorescence; at 76.8 µM (top of the series); further: nearly all actives have a fitted effect of over 35% in size
How it was run: as §5

[14] = A CellTox Green Cytotoxicity Assay to monitor cytotoxicity in HepG2 cells - 32 hour (AID 1224883); settings: CellTox Green fluorescence; at 76.8 µM (top of the series); further: nearly all actives have a fitted effect of over 50% in size
How it was run: as §5

[15] = A CellTox Green Cytotoxicity Assay to monitor cytotoxicity in HEK293 cells - 8 hour (AID 1224884); settings: CellTox Green fluorescence; at 76.8 µM (top of the series) unless noted; further: nearly all actives have a fitted effect of over 35% in size
How it was run: as §2

[16] = qHTS RealTime-Glo MT Cell Viability Assay in HepG2 cells - 16 hour (AID 1224885); settings: RealTime-Glo luminescence; at 76.8 µM (top of the series) unless noted; further: nearly all actives have a fitted effect of over 50% in size
How it was run: as §6

[17] = qHTS RealTime-Glo MT Cell Viability Assay in HEK293 cells - 24 hour (AID 1224886); settings: RealTime-Glo luminescence; at 76.8 µM (top of the series) unless noted
How it was run: as §3

[18] = qHTS RealTime-Glo MT Cell Viability Assay in HEK293 cells - 8 hour (AID 1224887); settings: RealTime-Glo luminescence; at 76.8 µM (top of the series) unless noted
How it was run: as §4

[19] = A CellTox Green Cytotoxicity Assay to monitor cytotoxicity in HEK293 cells - 16 hour (AID 1224888); settings: CellTox Green fluorescence, active compounds read high; at 76.8 µM (top of the series) unless noted; further: nearly all actives have a fitted effect of over 35% in size
How it was run: as §2

[20] = qHTS RealTime-Glo MT Cell Viability Assay in HepG2 cells - 0 hour (AID 1224889); settings: RealTime-Glo luminescence; at 76.8 µM (top of the series) unless noted; further: nearly all actives have a fitted effect of over 50% in size
How it was run: as §6
On the % scale 0 is the no-effect control and ±100 the full control effect.

O=[N+]([O-])c1ccccc1[N+](=O)[O-]
inactive: activity change, negative = cytotoxic [1] 0.704% and 0.625% | cytotoxicity increase [2] 0.569% and 12.7% | activity change, negative = cytotoxicity [3] 5.23% and 15.9% | viability change, negative = cytotoxic [4] -7% and -4.12% | max response [5] 0.164% | activity change [6] 0.0474% and 7.81% | cytotoxicity increase [7] -3.7% and -4.83% | activity change, negative = cytotoxic [8] 0.0246% and 0.876% | cytotoxicity [9] 0.486% and -7.3% | cytotoxicity increase [10] 0.301% and -11.1% | activity change, negative = cytotoxicity [11] -4.7% and 1.71% | cytotoxicity increase [12] 0.273% and 1.63% | cytotoxicity [13] -5.2% and -1.6% | cytotoxicity increase [14] -0.496% and -10.1% | cytotoxicity increase [15] -2.11% and 28.1% | activity change, negative = cytotoxic [16] -0.282% and -0.109% | activity change, negative = cytotoxicity [17] 8.25% | activity change, negative = cytotoxicity [18] -11.2% and -2.67% | activity change [19] 0.411% and 6.83% | activity change, negative = cytotoxicity [20] -0.0537% and 4.45%

ClCCNCCCl
inactive: activity change, negative = cytotoxic [1] 21.9% | cytotoxicity increase [2] 0.747% | activity change, negative = cytotoxicity [3] 5.32% | viability change, negative = cytotoxic [4] -20.1% | max response [5] -21.2% | activity change [6] 0.828% | cytotoxicity increase [7] -13.6% | activity change, negative = cytotoxic [8] 5.87% | cytotoxicity [9] -16.2% | cytotoxicity increase [10] -18.7% | activity change, negative = cytotoxicity [11] 10.9% | cytotoxicity increase [12] 1.8% | cytotoxicity [13] -8.52% | cytotoxicity increase [14] -13.5% | cytotoxicity increase [15] -1.43% | activity change, negative = cytotoxic [16] -12.4% | activity change, negative = cytotoxicity [17] -6.11% | activity change, negative = cytotoxicity [18] 11.2% | activity change [19] -0.493% | activity change, negative = cytotoxicity [20] -21.9%

ClCCOP(OCCCl)OCCCl
inactive: activity change, negative = cytotoxic [1] -1.57% and -6.43% | cytotoxicity increase [2] -5.49% and 5% | activity change, negative = cytotoxicity [3] 6.09% and 0.649% | viability change, negative = cytotoxic [4] 2.74% and 4.61% | max response [5] 8.19% and 4.3% | activity change [6] -9.68% and 2.97% | cytotoxicity increase [7] -11.1% and -17.6% | activity change, negative = cytotoxic [8] 0.131% and -1.58% | cytotoxicity [9] -10.1% and -19.6% | cytotoxicity increase [10] -12.1% and -22.3% | activity change, negative = cytotoxicity [11] 0.172% and 1.6% | cytotoxicity increase [12] -4.57% and 4.49% | cytotoxicity [13] -4.76% and -8.64% | cytotoxicity increase [14] -11% and -20.9% | cytotoxicity increase [15] -9.6% and 2.01% | activity change, negative = cytotoxic [16] 3.68% and 3.71% | activity change, negative = cytotoxicity [17] 10.3% and 0.977% | activity change, negative = cytotoxicity [18] 3.84% and 3.61% | activity change [19] -9.29% and 1.34% | activity change, negative = cytotoxicity [20] -3.79% and 3.58%

CCOC(=O)N1CCC(=O)CC1
inactive: activity change, negative = cytotoxic [1] 0.695% [at 35.3 µM] | cytotoxicity increase [2] 8.65% [at 35.3 µM] | activity change, negative = cytotoxicity [3] 2.96% [at 35.3 µM] | viability change, negative = cytotoxic [4] 2.63% [at 35.3 µM] | max response [5] 1.74% | activity change [6] 4.93% [at 35.3 µM] | activity change, negative = cytotoxic [8] 2.02% [at 35.3 µM] | activity change, negative = cytotoxicity [11] 4.27% [at 35.3 µM] | cytotoxicity increase [12] 6.55% [at 35.3 µM] | cytotoxicity increase [15] 5.25% [at 35.3 µM] | activity change, negative = cytotoxic [16] 2.18% [at 35.3 µM] | activity change, negative = cytotoxicity [17] 0.466% [at 35.3 µM] | activity change, negative = cytotoxicity [18] 1.51% [at 35.3 µM] | activity change [19] 1.73% [at 35.3 µM] | activity change, negative = cytotoxicity [20] 4.42% [at 35.3 µM]
